Data on one molecule can be found in paper PMC4908412, “β-arrestin-1 contributes to brown fat function and directly interacts with PPARα and PPARγ” (Scientific Reports, 2016).

The target in assay [1] is T1, PPARγ-ligand binding domain (amino acids 204–477) (human, UniProt P37231-2 204-477, biotinylated for biolayer interferometry; 15N-labeled for NMR).
T1 construct: The His tag is used for capture in the pulldown; also called PPARγ-LBD; wild-type PPARγ; source: E. coli BL21 (DE3)-CodonPlus, purified; not shown: His6, N-terminal, kept
T1 sequence (looked up): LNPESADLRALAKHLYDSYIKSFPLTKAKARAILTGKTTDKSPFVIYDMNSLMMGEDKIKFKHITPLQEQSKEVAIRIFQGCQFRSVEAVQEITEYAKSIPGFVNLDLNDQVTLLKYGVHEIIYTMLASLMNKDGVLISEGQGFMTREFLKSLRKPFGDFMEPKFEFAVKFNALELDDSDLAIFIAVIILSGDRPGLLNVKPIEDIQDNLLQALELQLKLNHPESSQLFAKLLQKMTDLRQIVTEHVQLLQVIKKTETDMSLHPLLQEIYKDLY
The assay is described as follows: BLI; Octet Red 96; 50 μg/ml biotinylated PPARα-LBD or PPARγ-LBD (or their mutants) immobilised on streptavidin biosensors; analyte β-arrestin-1, βarr1M or peptides in solution (single 2 μM or serial dilutions, β-arrestin-1 0.5–32 μM); 25 °C; 2:1 heterogeneous ligand model and steady-state analysis. The conditions noted are these: both partners purified. For orientation: BLI is a label-free optical method that tracks binding on a fibre tip over time.

Assay [2] has as its target T1, PPARγ-ligand binding domain (amino …). Described as above. Conditions: both partners purified. The source holds these as a separate data set.

B1: β-arrestin-1 (recombinant rattus β-arrestin-1) (natural protein, UniProt P29066 1-418, looked up)
chain: MGDKGTRVFKKASPNGKLTVYLGKRDFVDHIDLVDPVDGVVLVDPEYLKERRVYVTLTCAFRYGREDLDVLGLTFRKDLFVANVQSFPPAPEDKKPLTRLQERLIKKLGEHAYPFTFEIPPNLPCSVTLQPGPEDTGKACGVDYEVKAFCAENLEEKIHKRNSVRLVIRKVQYAPERPGPQPTAETTRQFLMSDKPLHLEASLDKEIYYHGEPISVNVHVTNNTNKTVKKIKISVRQYADICLFNTAQYKCPVAMEEADDTVAPSSTFCKVYTLTPFLANNREKRGLALDGKLKHEDTNLASSTLLREGANREILGIIVSYKVKVKLVVSRGGLLGDLASSDVAVELPFTLMHPKPKEEPPHREVPESETPVDTNLIELDTNDDDIVFEDFARQRLKGMKDDKDEEDDGTGSPHLNNR
notes: β-arrestin-1, rat (rattus), recombinant; also called βarr1; wild-type β-arrestin-1
For B1, in assay [1], the “KD1 (2:1 HL model)” value came out at 2.66 µM and the “KD2 (2:1 HL model)” value came out at 0.21 µM. In assay [2], this molecule registered a maximum response of 0.77 nm.
